According to PubChem BioAssay AID2233 (The Scripps Research Institute Molecular Screening Center, 2010):
The entries are a selection whose mix differs from that of the whole data set. Active and inactive are the calls of the source.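 How the source made its calls: active means mean inhibition across replicates above the hit cutoff set in the primary screen (cut at about 15% in these data); inactive means the rest.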

Protein sequences, listed by entry. Tags and fused reporters are not part of them. Lines headed by an entry give the natural chain unless they say otherwise; changes in a name come on top.
UniProt O75608: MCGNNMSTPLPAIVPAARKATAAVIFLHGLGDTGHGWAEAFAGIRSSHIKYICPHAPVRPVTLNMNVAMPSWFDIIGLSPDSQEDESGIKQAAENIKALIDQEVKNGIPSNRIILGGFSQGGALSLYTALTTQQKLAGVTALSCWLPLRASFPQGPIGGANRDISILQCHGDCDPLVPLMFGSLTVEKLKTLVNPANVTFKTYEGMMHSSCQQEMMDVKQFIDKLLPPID

Molecular target: Acyl-protein thioesterase 1 (Homo sapiens) (UniProt O75608)
Assay: inhibition of human lysophospholipase 1 – biochemical, fluorescence polarization, FP-Rh probe ABPP, counter-screen for PME1 inhibitor project, confirmation (AID 2233);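 further: loss of FP-Rh probe labeling of LYPLA1 seen as lower polarization; 0% = LYPLA1 with DMSO and 100% = wells lacking LYPLA1 enzyme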
Conditions: recombinant LYPLA1, FP-Rh probe fluorescence polarization; at 5.9 µM; hits give high values

Row | Structure (SMILES) | inhibition
1 | Nc1cccc2c([As](=O)(O)O)cccc12 | inactive: 4.71%
2 | CN(C)C(=O)c1cc([N+](=O)[O-])cc2c1-c1c(cc([N+](=O)[O-])cc1[N+](=O)[O-])C2=O | inactive: 0.67%
